We go through two substances from US11618753B2 (priority 2018, dated 2023).

Protein sequences, listed by entry. Tags and fused reporters are not part of them. Lines headed by an entry give the natural chain unless they say otherwise; changes in a name come on top.
UniProt O00329: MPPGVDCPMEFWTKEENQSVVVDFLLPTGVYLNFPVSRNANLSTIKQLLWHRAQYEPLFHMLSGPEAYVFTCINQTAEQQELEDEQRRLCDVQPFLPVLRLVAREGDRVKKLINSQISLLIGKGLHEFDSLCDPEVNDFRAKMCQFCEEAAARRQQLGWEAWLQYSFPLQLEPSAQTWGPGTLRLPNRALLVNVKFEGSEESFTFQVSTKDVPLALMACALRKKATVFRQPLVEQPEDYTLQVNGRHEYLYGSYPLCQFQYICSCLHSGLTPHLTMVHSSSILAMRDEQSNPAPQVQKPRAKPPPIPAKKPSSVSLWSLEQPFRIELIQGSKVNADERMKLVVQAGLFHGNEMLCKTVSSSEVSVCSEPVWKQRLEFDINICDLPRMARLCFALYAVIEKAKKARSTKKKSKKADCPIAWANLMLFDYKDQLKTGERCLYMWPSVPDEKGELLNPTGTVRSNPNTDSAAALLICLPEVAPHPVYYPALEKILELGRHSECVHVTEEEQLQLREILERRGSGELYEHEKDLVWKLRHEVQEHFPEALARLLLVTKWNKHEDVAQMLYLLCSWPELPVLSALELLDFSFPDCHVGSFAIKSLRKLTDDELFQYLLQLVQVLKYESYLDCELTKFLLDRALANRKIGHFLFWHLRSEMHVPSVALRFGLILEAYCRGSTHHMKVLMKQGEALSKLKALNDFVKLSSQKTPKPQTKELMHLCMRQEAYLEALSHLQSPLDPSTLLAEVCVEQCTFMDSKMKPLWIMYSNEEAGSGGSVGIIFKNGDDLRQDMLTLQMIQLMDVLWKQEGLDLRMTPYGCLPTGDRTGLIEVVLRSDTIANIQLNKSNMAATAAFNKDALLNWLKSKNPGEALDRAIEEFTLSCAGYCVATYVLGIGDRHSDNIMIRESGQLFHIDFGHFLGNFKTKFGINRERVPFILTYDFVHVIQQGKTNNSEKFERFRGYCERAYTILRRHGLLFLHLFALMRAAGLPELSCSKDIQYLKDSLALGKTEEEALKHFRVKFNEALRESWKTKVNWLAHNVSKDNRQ

This assay addresses GST-tagged PIK3Cδ in complex with PIK3R1 (Homo sapiens (Human), UniProt O00329). Conditions: read-out: PIK3Cδ IC50.

For orientation: IC50 means the concentration that inhibits the measured activity by half. Consider “5-{4-amino-5-[(4,4-difluoropiperidin-1-yl)methyl]pyrrolo[2,1-f][1,2,4]triazin-7-yl}-N-[3R,4S)-1-(3,5-difluoropyridine-2-carbonyl)-4-fluoropyrrolidin-3-yl]-2-methoxypyridine-3-carboxamide [Example 1263]”, for which the IC50 was over 15000 nM. The result for “5-[4-amino-5-(trifluoromethyl)pyrrolo[2,1-f][1,2,4]triazin-7-yl]-N-[(3R,4S)-1-(4,4-difluorocyclohexanecarbonyl)-4-fluoropyrrolidin-3-yl]-2-methylbenzamide [Example 990]” reads 63 nM.
